# Apparent affinities of Ab-14 variants for a coronavirus HR2 peptide

Data: MIT Lincoln Laboratory AlphaSeq set, Li et al. 2023, doi:10.1038/s41467-023-39022-2, as distributed in FLAb.

Binding partner: SARS-CoV-2 spike HR2 peptide, sequence PDVDLGDISGINAS.

Parent: Ab-14, a human scFv built as VH, a 15-residue (Gly4Ser)3 linker, VL. Only the CDRs of the light chain vary.
VH: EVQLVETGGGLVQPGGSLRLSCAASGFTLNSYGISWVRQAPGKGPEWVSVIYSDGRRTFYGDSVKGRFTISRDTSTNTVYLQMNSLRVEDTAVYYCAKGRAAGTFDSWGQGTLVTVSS
VL: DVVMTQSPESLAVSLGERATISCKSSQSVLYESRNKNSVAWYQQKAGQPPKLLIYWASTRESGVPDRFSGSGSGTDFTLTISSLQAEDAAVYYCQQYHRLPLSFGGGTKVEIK

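The starting antibody came from a phage panning campaign against this peptide. This is the validation round: designs drawn from the data on random variants, tested in the same kind of assay. Group labels follow the data file (En: ensemble of fine-tuned language models; GP: Gaussian process model; HC: hill climbing; Gen: genetic algorithm; Gibbs: Gibbs sampling; a sequence that several methods proposed may carry one label only). The scFvs were displayed on barcoded MATa yeast, the peptide on MATalpha yeast. Mating (16 h, 30 °C) was followed by selection of diploids and sequencing of their barcodes. Each replicate has its own calibration line, from reference interactions of the BCL2 family. There are six technical replicates.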

Each variant is given by its three light chain CDRs, as the data file delimits them; those of the parent are KSSQSVLYESRNKNSVA, WASTRES, QQYHRLPLS. This list holds designs with more than six substitutions. The Kd shown is the geometric mean over detected replicates; a lower Kd is a better binder. An entry "not detected" has no value in the source: the pair was not observed among the diploids in any replicate. This suggests poor binding but is not conclusive. Empty control strains, which show no peptide, gave a signal in 4% of pairings with all light chain designs; the median was 430 nM and 95% of these signals were weaker than 38 nM. No background was subtracted.

| CDR-L1 | CDR-L2 | CDR-L3 | group | apparent Kd | detected |
|---|---|---|---|---|---|
| MMSMGYLGGMRAKNNVA | QESTRED | QQYHRLPLI | En_HC | 39 nM | 3 of 6 |
| KVSQMQPYEERNKNNVA | MASTRMS | QQYHRLPLS | GP_Gibbs | 770 pM | 6 of 6 |
| QLRDAIWAEGMNKQSIA | ANEVSKD | QQYNRLPLS | En_Gibbs | 190 nM | 5 of 6 |
| TISQLMNMGQFAINSVA | QANIRNS | QQYDRLPLI | En_Gen | 13 nM | 6 of 6 |
| KLSMTTEMEHVNRNSVA | ELVTRIS | QQYNRLPLS | En_Gen | 14 nM | 6 of 6 |
| HISMMVGTKGYNKNSVA | NQETRED | QQYHRLPLS | En_HC | 3.2 nM | 6 of 6 |
| KLEWSDLLESRNKQSVA | NASQRMS | QQYHRLPLS | GP_Gibbs | 910 pM | 6 of 6 |
| HISESMYFQSRNKNNIA | EMSTRER | QHYHRLPLS | En_HC | 1.5 nM | 6 of 6 |
| KIGMTLNTLMHKKNNVA | DLVTREQ | QQYHRLPLS | En_Gen | 6.1 nM | 6 of 6 |
| KISQSILFMSGLKNAIA | QMEMREE | QQYHRLPLS | En_HC | 49 nM | 6 of 6 |
| LIKGMVEGQLYWQNAIA | NSEERDR | QQYNHLPLS | En_Gibbs | 64 nM | 5 of 6 |
| KISYMGEYFSTNHSAIA | QASTRVQ | QQYHRLPIS | En_HC | 10 nM | 6 of 6 |
| KIGMTLNQLLHKKNNVA | DLVTREQ | QQYHRLPLS | En_Gen | 4.1 nM | 6 of 6 |
| KLNDTFQQYERNNGSVA | DAIISEA | QQYARLPLI | En_Gibbs | 2.5 nM | 6 of 6 |
| KIGMTLNQLMKKKNNVA | DLVEREN | QQYFRLPLS | En_Gen | 2.7 nM | 6 of 6 |
| KISQMYRYEQQNSDSIA | EVSTRLN | QSYHRLPLS | En_HC | 290 nM | 5 of 6 |
| KLEEEADVITESGNSVA | EMSMVMS | QQYHRLPLA | En_Gibbs | 14 nM | 6 of 6 |
| KLPQSDLYEGRNSNSVA | NASTRFD | QQYHRLPLS | GP_Gibbs | 1.3 nM | 6 of 6 |
| KISMLQRYESQAKNNIA | EMSRREE | QQYHRLPLS | En_HC | 350 pM | 6 of 6 |
| QLGMTLKELSKVTNNVA | EMTTRGT | QQYFRLPLA | En_Gen | 21 nM | 4 of 6 |
| TLHANIEYGGGMWSSIA | DNVQRAD | QQYQRLPLG | En_Gibbs | 15 nM | 6 of 6 |
| ILNLSPMGHQIHMDAIA | QEAIRNA | QQYARLPLS | En_Gibbs | 35 nM | 3 of 6 |
| MISNVMNTLTRQGNNVA | DLEEREN | QQYFRLPLS | En_Gen | 11 nM | 6 of 6 |
| KLMQSDLYESRMQNNVA | DASTRMS | QQYHRLPLS | GP_Gibbs | 1.2 nM | 6 of 6 |
| VLSQSMDMTSRNVNSVA | DLTTRGN | QQYHRLPLS | En_HC | 2.9 nM | 6 of 6 |
| MISQLYNMGQFAINSVA | QASLRCN | QQYDRLPLI | En_Gen | 24 nM | 6 of 6 |
| TISQVMNTLTRQGNNVA | DLQERES | QQYFRLPLS | En_Gen | 15 nM | 6 of 6 |
| QMYPFGVAKGEGRNNVA | HVSTRAL | QQYFRLPLV | En_Gibbs | 12 nM | 6 of 6 |
| KFSAMLYHDNSEASHVA | EGLEVRE | QQYNRLPLG | En_Gibbs | 81 nM | 6 of 6 |
| KISQTFNVGTSNKNSLA | EMSTRGF | QDYHRLPLS | En_HC | 9.2 nM | 5 of 6 |
| KMNMAVSQDLMDEQSVA | DHMTAVT | QQYGRLPLS | En_Gibbs | not detected | 0 of 6 |
| IVSQLMLWGWHAKNSIA | EAQTRIN | QQYDRLPLM | En_Gen | not detected | 0 of 6 |
| KISGMYEKESKNKNSVA | EMVNRES | QQYDRLPLS | En_HC | 3.9 nM | 6 of 6 |
| TISMFMDNLSRNRNNVA | DTSTLGS | QSYDRLPLS | En_Gen | 11 nM | 6 of 6 |
| QINHQGLSANLNDKNVA | AKNLRVD | QQYNRLPLS | En_Gibbs | 1.5 nM | 6 of 6 |
| NFSQMVSTGMTLRNSVA | HAETRFN | QQYHRLPLI | En_HC | 14 nM | 6 of 6 |
| KISSLTNYESVNKNSVA | EMSTRPS | QSYHRLPLS | En_HC | 11 nM | 6 of 6 |
| KVSEFMRGLIKMKDSIA | DNDTRNS | QQYDRLPLS | En_Gen | 2.2 nM | 6 of 6 |
| KLRMSTAYLSEIKNSVA | ELTTRGN | QQYFRLPLS | En_HC | 9.8 nM | 6 of 6 |
| NIYQAMHTLMQAKNNIA | DVTNRNN | QQYHRLPLS | En_Gen | 44 nM | 5 of 6 |
| KQQCGELYMSRNKNSVA | DASQRES | QQYHRLPLS | GP_Gibbs | 490 pM | 6 of 6 |
| KMTGGLLDGNREPSNIA | AQDITTQ | QQYNRLPFI | En_Gibbs | 2.1 nM | 6 of 6 |
| KLGGVTEYEMYNKNSVA | QMTTRES | QQYHRLPLS | En_HC | 6.4 nM | 6 of 6 |
| KLLQEVTGHSRNRNSVA | HNSTRED | QQYDRLPLM | En_HC | 240 nM | 3 of 6 |
| KIGMTLNQQMKKKNNVA | DLVMREN | QQYHRLPLS | En_Gen | 3.6 nM | 6 of 6 |
| HCSQSVWQEERQKNSVA | NASTREQ | QQYHRLPLS | GP_Gibbs | 2.8 nM | 6 of 6 |
| SLTKLETTGQKKSENIA | DNSMRYE | QQYSHLPLK | En_Gibbs | 1.6 nM | 6 of 6 |
| MIDMGEAPNGQQTSSIA | QGHLRAE | QQYYRLPLC | En_Gibbs | 1.2 nM | 6 of 6 |
| KVVESELYESRNSNSVA | NASYRES | QQYHRLPLS | GP_Gibbs | 1.7 nM | 6 of 6 |
| KLSQSQEYESININSVA | NASTRLT | QQYHRLPLS | GP_Gibbs | 910 pM | 6 of 6 |
| NLFGHDFESKQMGNAIA | DMTTVMA | QQYFMLPLH | En_Gibbs | 7.2 nM | 6 of 6 |
| KLSMSDLMESRNWNSVA | HASTREE | QQYHRLPLS | GP_Gibbs | 3.3 nM | 6 of 6 |
| KLRQVTGYESYLKNSVA | QTSTRAS | QDYHRLPLS | En_HC | 11 nM | 6 of 6 |
| MISQSVGMTSRNKNSVA | ENSTRED | QQYDRLPLS | En_HC | 2.5 µM | 1 of 6 |
| TISQSTYWESRNKNNVA | QTSTREE | QDYDRLPLS | En_HC | 6.9 nM | 6 of 6 |
| TLYGLSLSMSKNTNSVA | EMTTRED | QQYDRLPLI | En_Gen | 28 nM | 6 of 6 |
| KLMQSAWLESRNFNNVA | QASQREL | QQYHRLPLS | GP_Gibbs | 860 pM | 6 of 6 |
| KLDMNELGQSQNKNCVA | SSAQKCS | QQYSRLPLS | En_Gibbs | 7.5 nM | 6 of 6 |
| KLSQSVRMESFVKDNVA | ENSTREA | QDYDRLPLS | En_HC | 640 nM | 1 of 6 |
| KFSQSMLYESRVKNNVA | DASQRES | QMYHRLPLS | GP_Gibbs | 5.3 nM | 6 of 6 |
| WLAMEEQPGDRGYSSVA | DADARMA | QQYQRLPLS | En_Gibbs | 4.4 nM | 6 of 6 |
| TLGDVTRMEANKKNSIA | DMSNRAD | QQYHRLPLS | En_HC | 510 pM | 6 of 6 |
| SFSQTVMYESTMRNNVA | QTSTRES | QQYDRLPLS | En_HC | 4.9 nM | 6 of 6 |
| MLTMFANENAGKSSNIA | DTNQLNT | QQYQRLPFM | En_Gibbs | 2.1 nM | 6 of 6 |
| MFSQLFMYGSRNYNSVA | QASTREA | QQYHRLPLI | En_HC | 6.7 nM | 6 of 6 |

The 6 strongest on average among those seen in every replicate, once more:

| CDR-L1 | CDR-L2 | CDR-L3 | group | apparent Kd | detected |
|---|---|---|---|---|---|
| KISMLQRYESQAKNNIA | EMSRREE | QQYHRLPLS | En_HC | 350 pM | 6 of 6 |
| KQQCGELYMSRNKNSVA | DASQRES | QQYHRLPLS | GP_Gibbs | 490 pM | 6 of 6 |
| TLGDVTRMEANKKNSIA | DMSNRAD | QQYHRLPLS | En_HC | 510 pM | 6 of 6 |
| KVSQMQPYEERNKNNVA | MASTRMS | QQYHRLPLS | GP_Gibbs | 770 pM | 6 of 6 |
| KLMQSAWLESRNFNNVA | QASQREL | QQYHRLPLS | GP_Gibbs | 860 pM | 6 of 6 |
| KLEWSDLLESRNKQSVA | NASQRMS | QQYHRLPLS | GP_Gibbs | 910 pM | 6 of 6 |

The range of this assay differs from that of the first round, and the authors advise against merging the two. In the paper, a design with two or fewer of six values counts as a poor binder. Of ten entries with the parent sequence, four were seen in most replicates (averages 2.2 nM to 240 nM), three in one and three in none, so single entries are noisy.